# Experimental data taken from patent US20080118553A1, “Tannate salt form of polypeptide mixtures, their preparation and use” (priority 2006, published 2008).
# “Also recorded” adds a separate entry of the source.
# Experiments:
# [1] = Degradation in simulated intestinal fluid (SIF), size exclusion chromatography RRT; format: in vitro ADME; conditions: for RRT (relative retention time) in SIF: 37.5°C, GA about 1.5 mg/ml, GT 5 mg/ml
# Method: Simulated intestinal fluid (SIF) with desired proteolytic activity was prepared based on USP procedure. 6.8 g of monobasic potassium phosphate was dissolved in 250 mL of water by mixing. 77 mL of 0.2 N sodium hydroxide and 500 mL of water were added. 10.0 g of pancreatin were added, and the solution was mixed. The pH of the resulting solution was adjusted with either 0.2 N sodium hydroxide of 0.2 N hydrochloric acid to a pH of 6.8±0.1. The solution was diluted with water to 1000 mL.
# SIF was heated to 37.5±0.5° C. At time zero, Glatiramer acetate (GA) solution and Glatiramer tannate (GT) suspension were each added to separate samples of SIF to attain final concentration of about 1.5 mg/ml and 5 mg/ml respectively. The reactions were performed while continuously stirring. The reactions were sampled at chosen intervals. The reaction was terminated in each sample using concentrated HCl. The retention time (RT) of the glatiramer peak of each sample was analyzed using size exclusion chromatography. A higher glatiramer RT is indicative of greater degradation. The Relative Retention time (RRT) was calculated for each sample as (RT of Glatiramer/RT of acetone) and the results were shown in Table 3.
# [2] = Degradation in simulated gastric fluid (SGF), size exclusion chromatography RRT; format: in vitro ADME; conditions: for RRT (relative retention time) in SGF: 37.5°C, GA about 1.5 mg/ml, GT 5 mg/ml
# Method: Simulated gastric fluid (SGF) with desired proteolytic activity was prepared based on USP procedure. 2.0 g of sodium chloride and 3.2 g of purified pepsin derived from porcine stomach mucosa, with an activity of 800 to 2500 units per mg of protein, was dissolved in 7.0 mL of hydrochloric acid and sufficient water to make 1000 mL. This test solution has a pH of about 1.2.
# SGF was heated to 37.5±0.5° C. At time zero, Glatiramer acetate (GA) solution and Glatiramer tannate (GT) suspension were each added to separate samples of SGF to attain final concentration of about 1.5 mg/ml and 5 mg/ml respectively (molar equivalent amounts of glatiramer). The reactions were sampled at pre-determined intervals. When removing samples, the reaction was terminated in each sample using NaOH solution. The retention time (RT) of the glatiramer peak of each sample was analyzed using size exclusion chromatography. A higher glatiramer RT indicates reduction in molecular weight, which is indicative of degradation. The Relative Retention time (RRT) was calculated for each sample as (RT of Glatiramer/RT of acetone) and the results were shown in Table 2.
# [3] = time 0 min, higher RRT = degradation
substance,measurement,setting,value
"L-glutamic acid polymer with L-alanine, L-lysine and L-tyrosine, acetate (salt) [GA]",RRT (relative retention time) in SIF,[1]; [3],0.68
same,RRT (relative retention time) in SIF,[1]; time 2 min,No peak
same,RRT (relative retention time) in SIF,[1]; time 5 min,No peak
same,RRT (relative retention time) in SIF,[1]; time 10 min,No peak
same,RRT (relative retention time) in SIF,[1]; time 20 min,No peak
same,RRT (relative retention time) in SIF,[1]; time 30 min,No peak
same,degradation in simulated intestinal fluid (in words),[1]; up to 30 min,rapidly degrades; also recorded: immediately degraded
same,RRT (relative retention time) in SGF,[2]; [3],0.69
same,RRT (relative retention time) in SGF,[2]; time 2 min,0.75
same,RRT (relative retention time) in SGF,[2]; time 5 min,0.76
same,RRT (relative retention time) in SGF,[2]; time 10 min,0.77
same,RRT (relative retention time) in SGF,[2]; time 20 min,0.78
same,RRT (relative retention time) in SGF,[2]; time 30 min,0.78
same,degradation in simulated gastric fluid (in words),[2]; up to 30 min,similar
